Laboratory results taken from US12208079B2, “Enantiomers of A2-73, analogues, and sigma agonist activity” (Anavex Life Sciences Corp., priority 2015, dated 2025).

Test system: muscarinic M1 receptors
Assay: Isolated organ bioassay, test for antagonist activity, field-stimulated rabbit vas deferens
Type: biochemical
Conditions: mean, n=2
Description: Prostatic segments of rabbit vas deferens were suspended in 20-ml organ baths containing an oxygenated (95% O2 and 5% CO2) and pre-warmed (30° C.) physiological salt solution of the following composition (in mM): NaCl 118.0, KCl 4.7, MgSO4 0.6, CaCl2) 2.5, KH2PO4 1.2, NaHCO325 and glucose 11.0 (pH 7.4).
Yohimbine (1 μM) and naloxone (1 μM) were also present throughout the experiments to block the α2-adrenergic and opioid receptors, respectively.
The tissues were connected to force transducers for isometric tension recordings. They were stretched to a resting tension of 1 g then allowed to equilibrate for 60 min during which time they were washed repeatedly and the tension readjusted. Thereafter, they were stimulated electrically with square wave pulses (submaximal intensity, 1 msec duration, 0.1 Hz) delivered by a constant current stimulator.
The tissues were exposed to a submaximal concentration of the reference agonist McN-A-343 (1 μM) to obtain a control response.
If it occurred, a recovery of the twitch contraction amplitude by the test compounds indicated an antagonist activity at the M1 receptors.
The parameter measured was the maximum change in the amplitude of the electrically-evoked contractions induced by the compounds.
The results are expressed as a percent of the control response to McN-A-343 (mean values).

CN1CCN(CC(=O)N2c3ccccc3C(=O)Nc3cccnc32)CC1 [pirenzepine, reference compound]
Response to McN-A-343 (1.0E−06M) in the presence of the compound, percent of the control response (compound 1.0E−07M): 4% | Response to McN-A-343 (1.0E−06M) in the presence of the compound, percent of the control response (compound 1.0E−08M): 72% | Response to McN-A-343 (1.0E−06M) in the presence of the compound, percent of the control response (compound 3.0E−08M): 43%
